Assay results published in article PMC6636858 (European journal of medicinal chemistry, 2019).

Chains of the proteins cited; added tags and fusions are not shown. Residues count along the entry.
UniProt P07711, 114-288 limits assumed: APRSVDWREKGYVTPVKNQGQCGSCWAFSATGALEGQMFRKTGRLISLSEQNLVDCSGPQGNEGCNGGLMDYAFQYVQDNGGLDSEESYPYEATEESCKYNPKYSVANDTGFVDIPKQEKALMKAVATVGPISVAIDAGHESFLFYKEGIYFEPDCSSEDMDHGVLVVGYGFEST
UniProt P07711, 292-333 limits assumed: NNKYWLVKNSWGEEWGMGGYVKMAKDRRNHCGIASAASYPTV

Key:
[1] = molecular target: Cathepsin B (CatB, human liver) (Homo sapiens, UniProt P07858); assay: CatB inhibition constants / Km, fluorogenic substrate Z-Arg-Arg-AMC; type: biochemical; conditions: 37 °C
[2] = molecular target: Cathepsin L (Cat L, human liver) (Homo sapiens, UniProt P07711); assay: CatL inhibition constants / Km, fluorogenic substrate Z-Phe-Arg-AMC; type: biochemical; conditions: 37 °C

Q: “3-(((S)-1-(((S)-1-((2-azidoethyl)amino)-5-guanidino-1-oxopentan-2-yl)amino)-4-methyl-1-oxopentan-2-yl)carbamoyl)oxirane-2-carboxylic acid [1a]” was tested. Which Ki [1] did it give?
A: The Ki was 64 ± 4 nM.

Q: And the Ki [2]?
A: Its Ki is 47 ± 6 nM.
